Data reported in US20060003993A1, “Benzotriazepnes as gastrin and cholecystokinin receptor ligands” (James Black Foundation Limited, priority 2001, published 2006).

Sequences of proteins named here, by UniProt entry; tags and fusion partners are left off.
UniProt P30553, whole entry: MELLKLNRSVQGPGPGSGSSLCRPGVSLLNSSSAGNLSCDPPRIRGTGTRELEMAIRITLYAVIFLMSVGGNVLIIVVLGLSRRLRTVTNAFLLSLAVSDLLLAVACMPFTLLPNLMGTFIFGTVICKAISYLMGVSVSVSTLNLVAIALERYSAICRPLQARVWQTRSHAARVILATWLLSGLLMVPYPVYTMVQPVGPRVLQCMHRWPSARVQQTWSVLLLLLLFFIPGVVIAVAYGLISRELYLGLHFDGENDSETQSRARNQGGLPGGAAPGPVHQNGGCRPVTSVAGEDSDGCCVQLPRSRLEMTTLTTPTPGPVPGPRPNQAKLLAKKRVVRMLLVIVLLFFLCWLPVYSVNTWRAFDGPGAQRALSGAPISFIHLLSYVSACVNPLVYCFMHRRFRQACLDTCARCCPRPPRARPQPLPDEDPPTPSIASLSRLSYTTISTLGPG

Biological target: gastrin (CCK2) receptors (Rattus norvegicus, UniProt P30553)
Assay: immature rat stomach assay, gastrin (CCK2) antagonist activity
Conditions: pentagastrin dose-response curves, acid secretion

CC(C)(C)C(=O)CN1C(=O)N(CC(=O)Nc2ccccn2)N=C(C2CCCCC2)c2ccccc21
pKB rat stomach (tested form: HCl): 6.18 ± 0.29

CC(C)(C)C(=O)CN1C(=O)N(CC(=O)Nc2cccc(SCc3nn[nH]n3)c2)N=C(C2CCCCC2)c2ccccc21
pKB rat stomach: 8.47 ± 0.31
